Measured values published in ChEMBL document CHEMBL6134854, “Development of Hydrazide-Based HDAC6 Selective Inhibitors for Treating NLRP3 Inflammasome-Related Diseases” (J Med Chem, 2025).
Activity calls are given as the source filed them. The rule behind the calls is not given here.

Biological target: T1, Protein deacetylase HDAC6 (Mus musculus) (UniProt Q9Z2V5)
T1 sequence (whole entry): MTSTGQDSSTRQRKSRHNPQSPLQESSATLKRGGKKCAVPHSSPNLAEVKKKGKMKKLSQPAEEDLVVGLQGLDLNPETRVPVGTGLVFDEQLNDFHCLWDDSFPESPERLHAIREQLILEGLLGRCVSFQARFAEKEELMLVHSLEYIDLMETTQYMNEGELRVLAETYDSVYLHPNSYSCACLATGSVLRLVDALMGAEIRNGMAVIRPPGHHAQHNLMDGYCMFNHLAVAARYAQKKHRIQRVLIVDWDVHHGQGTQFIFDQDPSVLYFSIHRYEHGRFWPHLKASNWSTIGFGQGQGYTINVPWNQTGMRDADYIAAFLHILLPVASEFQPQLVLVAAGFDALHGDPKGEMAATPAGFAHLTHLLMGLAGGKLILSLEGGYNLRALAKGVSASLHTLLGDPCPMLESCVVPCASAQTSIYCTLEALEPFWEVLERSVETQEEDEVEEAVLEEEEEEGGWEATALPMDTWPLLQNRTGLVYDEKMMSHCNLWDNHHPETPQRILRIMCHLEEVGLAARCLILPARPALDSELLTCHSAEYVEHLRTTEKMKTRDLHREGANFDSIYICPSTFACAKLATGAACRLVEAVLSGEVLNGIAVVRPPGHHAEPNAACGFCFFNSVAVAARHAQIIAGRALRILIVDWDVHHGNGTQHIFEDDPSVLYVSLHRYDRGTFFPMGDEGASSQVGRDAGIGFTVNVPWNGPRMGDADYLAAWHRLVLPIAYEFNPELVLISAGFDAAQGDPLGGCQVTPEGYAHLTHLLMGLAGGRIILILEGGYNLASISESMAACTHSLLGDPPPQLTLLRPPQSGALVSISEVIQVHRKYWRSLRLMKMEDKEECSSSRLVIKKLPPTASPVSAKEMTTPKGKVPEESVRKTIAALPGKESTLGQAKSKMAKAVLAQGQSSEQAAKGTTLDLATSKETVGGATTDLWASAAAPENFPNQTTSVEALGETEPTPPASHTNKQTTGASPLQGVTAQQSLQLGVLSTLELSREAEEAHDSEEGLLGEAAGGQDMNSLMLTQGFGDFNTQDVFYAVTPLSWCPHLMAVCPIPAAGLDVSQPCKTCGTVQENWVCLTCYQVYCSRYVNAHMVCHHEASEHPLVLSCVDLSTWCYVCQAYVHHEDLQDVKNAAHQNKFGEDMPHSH
Details: BALB/C, dose 20-40 mg/kg, route po, time 8.0 day

In the case of `CCNNC(=O)c1cc(F)c(CN2c3ccccc3C=Cc3ccncc32)cc1F`, the inhibition is reported as “Active”.
